Like-named read-outs stand apart in the source and are kept apart here.
Assays:
D189K hMC4R = D189K hMC4R (Homo sapiens, UniProt P32245, D189K); assay: cAMP AlphaScreen antagonist assay; format: cell-based
D189E hMC4R [1] = biological target: T1, D189E hMC4R (Homo sapiens, UniProt P32245, D189E); assay: cAMP AlphaScreen antagonist assay; format: cell-based
D189S hMC4R = D189S hMC4R (Homo sapiens, UniProt P32245, D189S); assay: cAMP AlphaScreen agonist / inverse agonist assay; format: cell-based
D189N hMC4R = D189N hMC4R (Homo sapiens, UniProt P32245, D189N); assay: cAMP AlphaScreen agonist / inverse agonist assay; format: cell-based
D189E hMC4R [2] = biological target: T1, D189E hMC4R; assay: cAMP AlphaScreen agonist / inverse agonist assay; format: cell-based
D189A hMC4R = D189A hMC4R (Homo sapiens, UniProt P32245, D189A); assay: cAMP AlphaScreen antagonist assay; format: cell-based
D189Q hMC4R = D189Q hMC4R (Homo sapiens, UniProt P32245, D189Q); assay: cAMP AlphaScreen antagonist assay; format: cell-based
[3] = biological target: T2, human melanocortin-4 receptor (hMC4R), wild type, N-terminal FLAG-tagged (human, UniProt P32245 1-332); assay: radioligand binding
[4] = biological target: T2, human melanocortin-4 receptor (hMC4R), …; assay: radioligand binding; remark: listed apart in the source

The chains behind the UniProt entries cited, without tags or fusion partners.
UniProt P32245, whole entry D189K: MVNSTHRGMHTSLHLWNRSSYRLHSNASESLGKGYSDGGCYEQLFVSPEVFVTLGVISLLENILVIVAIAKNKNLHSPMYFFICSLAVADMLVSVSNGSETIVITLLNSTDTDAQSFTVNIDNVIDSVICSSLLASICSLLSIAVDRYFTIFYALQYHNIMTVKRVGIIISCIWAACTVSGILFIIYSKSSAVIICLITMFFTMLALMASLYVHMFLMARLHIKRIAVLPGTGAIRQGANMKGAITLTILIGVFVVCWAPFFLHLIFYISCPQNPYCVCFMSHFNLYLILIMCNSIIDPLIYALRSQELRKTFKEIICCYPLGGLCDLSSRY
UniProt P32245, whole entry D189E: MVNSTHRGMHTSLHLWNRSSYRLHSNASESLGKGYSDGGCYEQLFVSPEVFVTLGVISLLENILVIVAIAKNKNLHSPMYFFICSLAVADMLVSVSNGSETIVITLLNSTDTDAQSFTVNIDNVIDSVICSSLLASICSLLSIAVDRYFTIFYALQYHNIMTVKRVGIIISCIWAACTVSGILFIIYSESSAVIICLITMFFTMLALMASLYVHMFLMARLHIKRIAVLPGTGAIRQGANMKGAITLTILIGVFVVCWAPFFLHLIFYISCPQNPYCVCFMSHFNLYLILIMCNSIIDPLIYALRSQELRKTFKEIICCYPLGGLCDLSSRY
UniProt P32245, whole entry D189S: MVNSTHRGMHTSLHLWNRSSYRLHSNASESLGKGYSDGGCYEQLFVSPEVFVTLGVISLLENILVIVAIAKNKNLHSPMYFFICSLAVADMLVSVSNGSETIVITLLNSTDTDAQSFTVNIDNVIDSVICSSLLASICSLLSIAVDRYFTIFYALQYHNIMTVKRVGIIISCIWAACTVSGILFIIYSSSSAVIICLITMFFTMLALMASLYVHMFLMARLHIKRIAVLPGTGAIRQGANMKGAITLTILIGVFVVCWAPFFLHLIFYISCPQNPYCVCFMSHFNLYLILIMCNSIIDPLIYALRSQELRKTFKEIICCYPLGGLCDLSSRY
UniProt P32245, whole entry D189N: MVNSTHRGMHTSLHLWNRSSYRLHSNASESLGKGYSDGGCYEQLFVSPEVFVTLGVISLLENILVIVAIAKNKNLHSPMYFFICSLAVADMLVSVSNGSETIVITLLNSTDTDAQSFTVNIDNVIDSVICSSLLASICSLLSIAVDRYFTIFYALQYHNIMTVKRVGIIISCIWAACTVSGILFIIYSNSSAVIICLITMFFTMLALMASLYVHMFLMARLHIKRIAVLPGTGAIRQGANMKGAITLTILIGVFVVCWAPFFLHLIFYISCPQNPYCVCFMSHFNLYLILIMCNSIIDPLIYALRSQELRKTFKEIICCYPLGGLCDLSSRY
UniProt P32245, whole entry D189A: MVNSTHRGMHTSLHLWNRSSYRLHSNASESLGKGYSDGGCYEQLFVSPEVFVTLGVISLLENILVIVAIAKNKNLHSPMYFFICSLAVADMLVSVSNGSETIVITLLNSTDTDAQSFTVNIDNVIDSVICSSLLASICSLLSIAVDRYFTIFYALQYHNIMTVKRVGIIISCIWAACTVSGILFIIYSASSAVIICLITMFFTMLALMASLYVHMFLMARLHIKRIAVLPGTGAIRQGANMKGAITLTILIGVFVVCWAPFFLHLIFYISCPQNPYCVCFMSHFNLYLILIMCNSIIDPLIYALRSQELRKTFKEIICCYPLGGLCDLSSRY
UniProt P32245, whole entry D189Q: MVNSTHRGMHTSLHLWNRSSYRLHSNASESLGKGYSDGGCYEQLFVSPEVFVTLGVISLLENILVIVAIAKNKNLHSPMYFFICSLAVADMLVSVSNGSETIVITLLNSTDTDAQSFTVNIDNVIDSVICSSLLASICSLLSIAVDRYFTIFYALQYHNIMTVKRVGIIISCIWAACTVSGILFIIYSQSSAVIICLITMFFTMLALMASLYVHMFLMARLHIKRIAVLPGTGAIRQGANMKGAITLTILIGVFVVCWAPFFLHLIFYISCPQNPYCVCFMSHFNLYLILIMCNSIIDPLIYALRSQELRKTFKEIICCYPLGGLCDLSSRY
UniProt P32245, whole entry: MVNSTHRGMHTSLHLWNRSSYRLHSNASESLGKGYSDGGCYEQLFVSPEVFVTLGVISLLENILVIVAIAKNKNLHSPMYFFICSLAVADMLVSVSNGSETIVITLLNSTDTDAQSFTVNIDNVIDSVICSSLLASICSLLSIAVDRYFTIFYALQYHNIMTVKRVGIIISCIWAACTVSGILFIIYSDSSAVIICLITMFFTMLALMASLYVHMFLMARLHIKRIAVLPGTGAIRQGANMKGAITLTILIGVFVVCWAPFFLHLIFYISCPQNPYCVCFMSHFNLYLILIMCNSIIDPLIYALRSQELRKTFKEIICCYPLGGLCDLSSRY

With `C[C@@H]1NC(=O)[C@@H](CN)NC(=O)[C@H](Cc2ccccc2)NC(=O)[C@H](Cc2ccccc2)NC(=O)[C@H](CCCNC(=N)N)NC(=O)[C@@H]2CCCN2C(=O)[C@H]2CCCN2C(=O)[C@H](Cc2ccccc2)NC1=O` [MDE3–119-7c, c[Pro-Arg-Phe-Phe-DDap-Ala-Phe-DPro]] the Kb (D189K hMC4R) was 20 nM, the Kb (D189E hMC4R [1]) was 1.58 nM and the EC50 (D189S hMC4R) was 14 ± 8 nM. The EC50 (D189N hMC4R) was 10 ± 2 nM and the EC50 (D189E hMC4R [2]) was 4 ± 2 nM.

For `C[C@@H]1NC(=O)[C@H](CN)NC(=O)[C@H](Cc2ccccc2)NC(=O)[C@H](Cc2ccccc2)NC(=O)[C@H](CCCNC(=N)N)NC(=O)[C@@H]2CCCN2C(=O)[C@H]2CCCN2C(=O)[C@H](Cc2ccccc2)NC1=O` [MDE3–119-8c, c[Pro-Arg-Phe-Phe-Dap-Ala-Phe-DPro]], the Kb (D189A hMC4R) was 50.1 nM, the Kb (D189Q hMC4R) was 7.94 nM and the EC50 (D189S hMC4R) was 8 ± 5 nM. For the same molecule, the EC50 (D189N hMC4R) was 190 ± 188 nM and the EC50 (D189E hMC4R [2]) was 3.4 ± 2.2 nM.

With PRFFVAFP (DPro at position 8; cyclized head-to-tail through the DPro-Pro motif) [MDE3–119-10c] the IC50 [3] was 5400 nM and the IC50 [4] was 2400 nM.
